# Laboratory results published in US11287428B2, “PD1 and PDL-1 expression during progression from myelodysplastic syndrome to acute myelogenous leukemia” (H. Lee Moffitt Cancer Center and Research Institute, Inc., priority 2016, dated 2022).
# Test system: CD71 from BM MNC
# Test: Apoptosis of BM cells in rhPD-L1 coated wells
# Format: cell-based, human
# Details: rhPD-L1 coated wells of 24-well plate, 24 h
# Method: BM cells were placed in rhPD-L1 coated wells of 24-well plate for 24 h.
substance,measurement,value
rhPDL1: recombinant human PD-L1 coated on wells of 24-well plate,apoptosis of CD71 from BM MNC,increase apoptosis
